Test results: patent US5430148A, “Antiproliferative quinazolines” (Agouron Pharmaceuticals, Inc., priority 1992, dated 1995)

Key:
Format in all cases: cell-based
[1] = test system: L1210 murine leukemia cells; test: Inhibition of growth of tumor cells, L1210 murine leukemia (MTT); conditions: Mus musculus, L1210, 72 h, 3 days continuous exposure, read-out: Cell Culture IC50, L1210
CCRF-CEM cells = test: Inhibition of growth of tumor cells, CCRF-CEM human lymphoblastic leukemia (MTT); conditions: 120 h, 5 days continuous exposure, read-out: Cell Culture IC50, CCRF-CEM
GC3/M TK- cells = test: Inhibition of growth of tumor cells, thymidine kinase-deficient human colon adenocarcinoma GC3/M TK- (MTT); conditions: GC3/MTK-, 120 h, 5 days continuous exposure, read-out: Cell Culture IC50, GC3-M (TK-)

IC50 [1] [µM]	IC50 (CCRF-CEM cells) [µM]	IC50 (GC3/M TK- cells) [µM]	SMILES
14			Cc1nc2cccc(Sc3ccncc3)c2c(=O)[nH]1 [Compound 7A]
8.1	8.6	15	Cc1nc2ccc(C)c(Sc3ccnc(C(F)(F)F)c3)c2c(=O)[nH]1 [Compound 17A, 3,4-Dihydro-2,6-dimethyl-4-oxo-5-[4-(6-trifluoromethylpyridylthio)]-quinazoline]
	10.5		Cc1nc2ccc(C)c(Sc3ccnnc3)c2c(=O)[nH]1 [Compound 29A]

SMILES	IC50 [1] [µM]	IC50 (CCRF-CEM cells) [µM]	IC50 (GC3/M TK- cells) [µM]
COc1cc(Sc2c(C)ccc3nc(C)[nH]c(=O)c23)ccn1 [Compound 16A, 3,4-Dihydro-2,6-dimethyl-4-oxo-5-[4-(6-methoxypyridylthio)]quinazoline]	3.1	3.8	
